# Measured values reported in patent US9072794B2 (HANMI SCIENCE CO., LTD, priority 2010, dated 2015).
# System: diet-induced obesity (DIO) mice
# Assay: Co-administration of native glucagon with long-acting exendin-4 conjugate in DIO mice
# Type: in vivo
structure (smiles),measurement,setting,value
"CSCC[C@H](NC(=O)[C@H](CC(C)C)NC(=O)[C@H](Cc1c[nH]c2ccccc12)NC(=O)[C@H](CCC(N)=O)NC(=O)[C@@H](NC(=O)[C@H](Cc1ccccc1)NC(=O)[C@H](CC(=O)O)NC(=O)[C@H](CCC(N)=O)NC(=O)[C@H](C)NC(=O)[C@H](CCCN=C(N)N)NC(=O)[C@H](CCCN=C(N)N)NC(=O)[C@H](CO)NC(=O)[C@H](CC(=O)O)NC(=O)[C@H](CC(C)C)NC(=O)[C@H](Cc1ccc(O)cc1)NC(=O)[C@H](CCCCN)NC(=O)[C@H](CO)NC(=O)[C@H](Cc1ccc(O)cc1)NC(=O)[C@H](CC(=O)O)NC(=O)[C@H](CO)NC(=O)[C@@H](NC(=O)[C@H](Cc1ccccc1)NC(=O)[C@@H](NC(=O)CNC(=O)[C@H](CCC(N)=O)NC(=O)[C@H](CO)NC(=O)[C@@H](N)Cc1c[nH]cn1)[C@@H](C)O)[C@@H](C)O)C(C)C)C(=O)N[C@@H](CC(N)=O)C(=O)N[C@H](C(=O)O)[C@@H](C)O [native glucagon, glucagon]",fluctuation in blood glucose level,"DIO mice, native glucagon 200 μg/kg BID co-administered with long-acting exendin-4 conjugate 20 μg/kg once a week, FIG. 5",severe fluctuation
same,toxicity in test animals,native glucagon (once a day) co-administered with long-acting exendin-4 conjugate (once a week),toxicity
